Experimental data taken from ChEMBL document CHEMBL3297690, “Discovery and development of Janus kinase (JAK) inhibitors for inflammatory diseases” (J Med Chem, 2014).

The chains behind the UniProt entries cited, without tags or fusion partners. Where a name states a change or a piece, a line headed by the entry shows the natural chain unless it says otherwise.
UniProt P29597: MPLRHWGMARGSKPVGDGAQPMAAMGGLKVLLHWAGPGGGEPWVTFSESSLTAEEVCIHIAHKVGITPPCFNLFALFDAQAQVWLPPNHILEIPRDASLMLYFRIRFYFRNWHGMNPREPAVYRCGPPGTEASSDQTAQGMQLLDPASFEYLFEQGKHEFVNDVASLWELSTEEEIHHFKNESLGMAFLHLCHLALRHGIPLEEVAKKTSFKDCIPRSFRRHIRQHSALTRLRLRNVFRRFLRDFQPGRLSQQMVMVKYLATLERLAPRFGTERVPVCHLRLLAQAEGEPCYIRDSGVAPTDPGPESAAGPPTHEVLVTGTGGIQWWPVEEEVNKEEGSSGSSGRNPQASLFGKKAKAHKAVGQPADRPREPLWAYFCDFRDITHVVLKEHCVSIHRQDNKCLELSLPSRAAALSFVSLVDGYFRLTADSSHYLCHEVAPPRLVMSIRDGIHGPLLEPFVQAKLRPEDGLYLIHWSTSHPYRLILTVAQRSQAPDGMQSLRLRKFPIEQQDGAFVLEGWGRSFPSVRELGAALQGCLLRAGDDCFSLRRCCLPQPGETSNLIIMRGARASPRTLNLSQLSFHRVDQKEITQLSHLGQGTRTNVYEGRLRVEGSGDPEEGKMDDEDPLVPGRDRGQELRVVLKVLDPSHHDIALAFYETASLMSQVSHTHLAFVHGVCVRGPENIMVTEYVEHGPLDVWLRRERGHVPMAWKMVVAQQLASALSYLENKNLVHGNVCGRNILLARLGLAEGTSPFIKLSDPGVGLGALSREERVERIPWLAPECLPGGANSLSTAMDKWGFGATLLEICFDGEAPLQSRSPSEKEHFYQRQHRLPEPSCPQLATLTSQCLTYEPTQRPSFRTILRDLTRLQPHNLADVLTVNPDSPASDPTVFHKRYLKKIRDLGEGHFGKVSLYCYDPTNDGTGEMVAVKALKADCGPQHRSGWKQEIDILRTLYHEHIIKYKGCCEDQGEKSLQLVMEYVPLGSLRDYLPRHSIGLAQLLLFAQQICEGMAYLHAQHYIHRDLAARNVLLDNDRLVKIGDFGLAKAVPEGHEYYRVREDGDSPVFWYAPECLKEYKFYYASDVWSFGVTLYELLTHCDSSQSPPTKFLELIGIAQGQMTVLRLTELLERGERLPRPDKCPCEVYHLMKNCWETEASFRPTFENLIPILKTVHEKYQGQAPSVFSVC
UniProt O60674: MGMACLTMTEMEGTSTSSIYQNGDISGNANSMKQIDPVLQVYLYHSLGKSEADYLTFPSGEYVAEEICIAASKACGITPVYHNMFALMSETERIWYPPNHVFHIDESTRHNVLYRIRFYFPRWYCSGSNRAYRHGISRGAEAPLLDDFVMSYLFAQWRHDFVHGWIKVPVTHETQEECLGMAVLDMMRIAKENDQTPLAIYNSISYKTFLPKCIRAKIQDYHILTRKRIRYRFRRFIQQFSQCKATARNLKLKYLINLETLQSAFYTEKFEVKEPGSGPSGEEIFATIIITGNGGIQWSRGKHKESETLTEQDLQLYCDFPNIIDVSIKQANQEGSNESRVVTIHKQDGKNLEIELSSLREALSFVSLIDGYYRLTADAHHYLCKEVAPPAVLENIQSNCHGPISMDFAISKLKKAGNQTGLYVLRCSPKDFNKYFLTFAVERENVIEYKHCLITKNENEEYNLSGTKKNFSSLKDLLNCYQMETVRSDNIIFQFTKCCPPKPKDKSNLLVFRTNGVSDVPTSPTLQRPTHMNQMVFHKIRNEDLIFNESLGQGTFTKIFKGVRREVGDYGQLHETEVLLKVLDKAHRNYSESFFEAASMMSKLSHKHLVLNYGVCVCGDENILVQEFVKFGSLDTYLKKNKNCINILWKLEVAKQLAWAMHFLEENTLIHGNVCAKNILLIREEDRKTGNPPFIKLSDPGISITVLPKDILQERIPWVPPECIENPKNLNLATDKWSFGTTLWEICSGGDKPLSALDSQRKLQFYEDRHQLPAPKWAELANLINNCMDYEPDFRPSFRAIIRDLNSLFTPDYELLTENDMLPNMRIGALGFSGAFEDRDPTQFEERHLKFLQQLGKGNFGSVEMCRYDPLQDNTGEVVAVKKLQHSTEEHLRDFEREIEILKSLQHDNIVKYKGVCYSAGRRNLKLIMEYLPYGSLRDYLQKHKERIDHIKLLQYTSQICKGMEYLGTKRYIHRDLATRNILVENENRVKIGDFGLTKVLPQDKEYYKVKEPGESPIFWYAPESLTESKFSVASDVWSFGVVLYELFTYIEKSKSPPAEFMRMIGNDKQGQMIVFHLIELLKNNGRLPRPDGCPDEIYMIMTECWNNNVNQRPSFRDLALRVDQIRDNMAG
UniProt P23458: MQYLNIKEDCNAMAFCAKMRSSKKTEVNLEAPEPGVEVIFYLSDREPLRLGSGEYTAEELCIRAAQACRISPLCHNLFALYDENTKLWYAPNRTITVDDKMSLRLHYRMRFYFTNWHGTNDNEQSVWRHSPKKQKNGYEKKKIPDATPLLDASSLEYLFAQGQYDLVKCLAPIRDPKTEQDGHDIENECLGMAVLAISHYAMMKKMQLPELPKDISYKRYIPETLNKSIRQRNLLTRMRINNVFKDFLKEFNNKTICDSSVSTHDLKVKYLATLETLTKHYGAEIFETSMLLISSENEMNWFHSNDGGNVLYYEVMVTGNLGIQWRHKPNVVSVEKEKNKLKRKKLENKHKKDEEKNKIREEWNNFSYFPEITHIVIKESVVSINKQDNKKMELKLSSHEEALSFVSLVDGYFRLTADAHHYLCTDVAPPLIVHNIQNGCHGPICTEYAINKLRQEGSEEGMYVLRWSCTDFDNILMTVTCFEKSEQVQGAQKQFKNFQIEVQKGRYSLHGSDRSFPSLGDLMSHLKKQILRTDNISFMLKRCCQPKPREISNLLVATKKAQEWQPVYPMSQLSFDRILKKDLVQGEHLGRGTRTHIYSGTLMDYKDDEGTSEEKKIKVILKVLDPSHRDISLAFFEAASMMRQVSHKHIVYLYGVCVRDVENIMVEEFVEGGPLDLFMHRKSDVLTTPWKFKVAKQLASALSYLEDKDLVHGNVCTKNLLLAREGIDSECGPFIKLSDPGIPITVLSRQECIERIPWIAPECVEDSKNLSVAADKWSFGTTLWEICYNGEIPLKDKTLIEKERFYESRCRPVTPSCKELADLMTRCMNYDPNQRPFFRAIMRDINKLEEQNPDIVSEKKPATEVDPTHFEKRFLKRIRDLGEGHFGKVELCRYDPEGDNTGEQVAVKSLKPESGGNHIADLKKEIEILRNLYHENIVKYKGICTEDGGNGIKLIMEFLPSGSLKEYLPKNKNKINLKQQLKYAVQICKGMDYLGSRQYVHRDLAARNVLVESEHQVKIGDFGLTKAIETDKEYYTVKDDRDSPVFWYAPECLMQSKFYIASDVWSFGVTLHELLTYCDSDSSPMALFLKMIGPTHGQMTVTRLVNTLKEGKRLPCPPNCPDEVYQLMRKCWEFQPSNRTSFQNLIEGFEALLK

Experiments:
[1] = target: Non-receptor tyrosine-protein kinase TYK2 (Homo sapiens, UniProt P29597)
JAK2/TYK2 [2] = target: T1, JAK2/TYK2 (Homo sapiens, UniProt O60674+P29597); type: protein-complex assay, Blood
JAK2/TYK2 [3] = target: T1, JAK2/TYK2; type: protein-complex assay, Blood; remark: listed apart in the source
JAK1/JAK2/TYK2 = JAK1/JAK2/TYK2 (Homo sapiens, UniProt O60674+P23458+P29597); type: protein-complex assay, Blood
JAK1/TYK2 = JAK1/TYK2 (Homo sapiens, UniProt P23458+P29597); type: protein-complex assay, Blood

CC[C@@](C)(Nc1ccnc(-c2c[nH]c3ncccc23)n1)C(=O)NCC(F)(F)F [DECERNOTINIB]
pIC50 [1]: < 5.00 | pIC50 (JAK2/TYK2 [2]): 4.79 | pIC50 (JAK2/TYK2 [3]): 4.95 | pIC50 (JAK1/JAK2/TYK2): 5.73 | pIC50 (JAK1/TYK2): 5.89

pIC50: −log10 of the molar value.
